Measured values published in patent publication US7947270B2, “Removing dental plaque with krill enzymes” (Arcimboldo AB, priority 1992, dated 2011).

Biological target: krill-derived multifunctional hydrolase (antarctic krill)
Experiment: cell-based or functional assay

% activity remaining of Prep-3 with 1 µM inhibitor, pH 9.5 (% activity remaining): 2
% activity remaining of Prep-8 with 1 µM inhibitor, pH 9.5 (% activity remaining): 1
% activity remaining of Prep-11 with 1 µM inhibitor, pH 9.5 (% activity remaining): 1
Substance: Bovine pancreatic trypsin inhibitor (from UniProt P00974 36-93)
